{"source": "PubChem BioAssay (NCI)", "experiment_in_all_cases": "NCI-60 cell line screen, 48 h", "key": {"[1]": {"system": "786-0 renal"}, "[2]": {"system": "A498 renal"}, "[3]": {"system": "A549 NSCLC"}, "[4]": {"system": "ACHN renal"}, "[5]": {"system": "CAKI-1 renal"}, "[6]": {"system": "CCRF-CEM leukemia"}, "[7]": {"system": "COLO 205 colon"}, "[8]": {"system": "DLD-1 colon"}, "[9]": {"system": "DMS 114 small cell lung"}, "[10]": {"system": "DMS 273 small cell lung"}, "[11]": {"system": "EKVX NSCLC"}, "[12]": {"system": "HCC-2998 colon"}, "[13]": {"system": "HCT-116 colon"}, "[14]": {"system": "HCT-15 colon"}, "[15]": {"system": "HL-60(TB) leukemia"}, "[16]": {"system": "HOP-18 NSCLC"}, "[17]": {"system": "HOP-62 NSCLC"}, "[18]": {"system": "HOP-92 NSCLC"}, "[19]": {"system": "HT29 colon"}, "[20]": {"system": "IGROV1 ovarian"}, "[21]": {"system": "K-562 leukemia"}, "[22]": {"system": "KM12 colon"}, "[23]": {"system": "KM20L2 colon"}, "[24]": {"system": "LOX IMVI melanoma"}, "[25]": {"system": "M14 melanoma"}, "[26]": {"system": "M19-MEL melanoma"}, "[27]": {"system": "MALME-3M melanoma"}, "[28]": {"system": "MOLT-4 leukemia"}, "[29]": {"system": "NCI-H226 lung"}, "[30]": {"system": "NCI-H23 lung"}, "[31]": {"system": "NCI-H322M lung"}, "[32]": {"system": "NCI-H460 lung"}, "[33]": {"system": "NCI-H522 lung"}, "[34]": {"system": "OVCAR-3 ovarian"}, "[35]": {"system": "OVCAR-4 ovarian"}, "[36]": {"system": "OVCAR-5 ovarian"}, "[37]": {"system": "OVCAR-8 ovarian"}, "[38]": {"system": "RPMI-8226 leukemia"}, "[39]": {"system": "RXF 393 renal"}, "[40]": {"system": "SF-268 CNS"}, "[41]": {"system": "SF-295 CNS"}, "[42]": {"system": "SF-539 CNS"}, "[43]": {"system": "SK-MEL-2 melanoma"}, "[44]": {"system": "SK-MEL-28 melanoma"}, "[45]": {"system": "SK-MEL-5 melanoma"}, "[46]": {"system": "SK-OV-3 ovarian"}, "[47]": {"system": "SN12C renal"}, "[48]": {"system": "SNB-19 CNS"}, "[49]": {"system": "SNB-75 CNS"}, "[50]": {"system": "SNB-78 CNS"}, "[51]": {"system": "SR leukemia"}, "[52]": {"system": "SW-620 colon"}, "[53]": {"system": "TK-10 renal"}, "[54]": {"system": "U251 CNS"}, "[55]": {"system": "UACC-257 melanoma"}, "[56]": {"system": "UACC-62 melanoma"}, "[57]": {"system": "UO-31 renal"}, "[58]": {"system": "XF 498 CNS"}}, "note": "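Results reflect a 48-hour exposure of cells in 96-well plates to compound at five concentrations. TGI denotes the concentration required for complete inhibition of growth.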", "data": [{"smiles": "CC1(C)CN1P(=O)(Nc1ncccn1)N1CC1(C)C", "note": "(stereo not drawn)", "values": [{"measurement": "TGI", "setting": "[1]", "value": "> 100", "unit": "µM"}, {"measurement": "TGI", "setting": "[2]", "value": "> 100", "unit": "µM"}, {"measurement": "TGI", "setting": "[3]", "value": "> 100", "unit": "µM"}, {"measurement": "TGI", "setting": "[4]", "value": "> 100", "unit": "µM"}, {"measurement": "TGI", "setting": "[5]", "value": 43.8, "unit": "µM"}, {"measurement": "TGI", "setting": "[6]", "value": "> 100", "unit": "µM"}, {"measurement": "TGI", "setting": "[7]", "value": "> 100", "unit": "µM"}, {"measurement": "TGI", "setting": "[8]", "value": "> 100", "unit": "µM"}, {"measurement": "TGI", "setting": "[9]", "value": "> 100", "unit": "µM"}, {"measurement": "TGI", "setting": "[10]", "value": "> 100", "unit": "µM"}, {"measurement": "TGI", "setting": "[11]", "value": "> 100", "unit": "µM"}, {"measurement": "TGI", "setting": "[12]", "value": "> 100", "unit": "µM"}, {"measurement": "TGI", "setting": "[13]", "value": "> 100", "unit": "µM"}, {"measurement": "TGI", "setting": "[14]", "value": "> 100", "unit": "µM"}, {"measurement": "TGI", "setting": "[15]", "value": "> 100", "unit": "µM"}, {"measurement": "TGI", "setting": "[16]", "value": "> 100", "unit": "µM"}, {"measurement": "TGI", "setting": "[17]", "value": "> 100", "unit": "µM"}, {"measurement": "TGI", "setting": "[18]", "value": "> 100", "unit": "µM"}, {"measurement": "TGI", "setting": "[19]", "value": "> 100", "unit": "µM"}, {"measurement": "TGI", "setting": "[20]", "value": "> 100", "unit": "µM"}, {"measurement": "TGI", "setting": "[21]", "value": "> 100", "unit": "µM"}, {"measurement": "TGI", "setting": "[22]", "value": "> 100", "unit": "µM"}, {"measurement": "TGI", "setting": "[23]", "value": "> 100", "unit": "µM"}, {"measurement": "TGI", "setting": "[24]", "value": "> 100", "unit": "µM"}, {"measurement": "TGI", "setting": "[25]", "value": "> 100", "unit": "µM"}, {"measurement": "TGI", "setting": "[26]", "value": "> 100", "unit": "µM"}, {"measurement": "TGI", "setting": "[27]", "value": "> 100", "unit": "µM"}, {"measurement": "TGI", "setting": "[28]", "value": "> 100", "unit": "µM"}, {"measurement": "TGI", "setting": "[29]", "value": "> 100", "unit": "µM"}, {"measurement": "TGI", "setting": "[30]", "value": "> 100", "unit": "µM"}, {"measurement": "TGI", "setting": "[31]", "value": "> 100", "unit": "µM"}, {"measurement": "TGI", "setting": "[32]", "value": "> 100", "unit": "µM"}, {"measurement": "TGI", "setting": "[33]", "value": "> 100", "unit": "µM"}, {"measurement": "TGI", "setting": "[34]", "value": "> 100", "unit": "µM"}, {"measurement": "TGI", "setting": "[35]", "value": "> 100", "unit": "µM"}, {"measurement": "TGI", "setting": "[36]", "value": "> 100", "unit": "µM"}, {"measurement": "TGI", "setting": "[37]", "value": "> 100", "unit": "µM"}, {"measurement": "TGI", "setting": "[38]", "value": "> 100", "unit": "µM"}, {"measurement": "TGI", "setting": "[39]", "value": "> 100", "unit": "µM"}, {"measurement": "TGI", "setting": "[40]", "value": "> 100", "unit": "µM"}, {"measurement": "TGI", "setting": "[41]", "value": "> 100", "unit": "µM"}, {"measurement": "TGI", "setting": "[42]", "value": "> 100", "unit": "µM"}, {"measurement": "TGI", "setting": "[43]", "value": "> 100", "unit": "µM"}, {"measurement": "TGI", "setting": "[44]", "value": "> 100", "unit": "µM"}, {"measurement": "TGI", "setting": "[45]", "value": "> 100", "unit": "µM"}, {"measurement": "TGI", "setting": "[46]", "value": "> 100", "unit": "µM"}, {"measurement": "TGI", "setting": "[47]", "value": "> 100", "unit": "µM"}, {"measurement": "TGI", "setting": "[48]", "value": "> 100", "unit": "µM"}, {"measurement": "TGI", "setting": "[49]", "value": "> 100", "unit": "µM"}, {"measurement": "TGI", "setting": "[50]", "value": "> 100", "unit": "µM"}, {"measurement": "TGI", "setting": "[51]", "value": "> 100", "unit": "µM"}, {"measurement": "TGI", "setting": "[52]", "value": "> 100", "unit": "µM"}, {"measurement": "TGI", "setting": "[53]", "value": "> 100", "unit": "µM"}, {"measurement": "TGI", "setting": "[54]", "value": "> 100", "unit": "µM"}, {"measurement": "TGI", "setting": "[55]", "value": "> 100", "unit": "µM"}, {"measurement": "TGI", "setting": "[56]", "value": "> 100", "unit": "µM"}, {"measurement": "TGI", "setting": "[57]", "value": "> 100", "unit": "µM"}, {"measurement": "TGI", "setting": "[58]", "value": "> 100", "unit": "µM"}]}]}
